Measured values: paper PMC6711705 (2019)

Legend:
Experiment in all cases: SPR; avidity (IgG)
[1] = target: Fc-tagged FZD7 CRD (human, UniProt O75084)
[2] = target: Fc-tagged FZD1 CRD (human, UniProt Q9UP38)
[3] = target: Fc-tagged FZD2 CRD (human, UniProt Q14332)

Kd [1]: 0.0123 nM
Kd [2]: 0.0251 nM
Kd [3]: 0.0239 nM
B1: F^P IgG (antibody, V domains shown)
VH: EVQLVESGGGLVQPGGSLRLSCAASGFNIGSSSIHWVRQAPGKGLEWVASIYSAFASTSYADSVKGRFTISADTSKNTAYLQMNSLRAEDTAVYYCARYHFPFGFALDYWGQGTLVTVSS
VL: DIQMTQSPSSLSASVGDRVTITCRASQSVSSAVAWYQQKPGKAPKLLIYSASSLYSGVPSRFSGSRSGTDFTLTISSLQPEDFATYYCQQGVYLFTFGQGTKVEIK
